Assay results reported in PubChem BioAssay (Tox21).
“And” between values parts separate entries of the source, which are not always exact repeats. Equal values may be shown once. Only a part is listed here, and it is no random draw. Results filed as inconclusive are left out. The source made the active and inactive calls. Unless noted, the call rests on the fitted dose curve; in most records, active means well fitted curve in the direction sought with a large enough effect in the repeat runs; inconclusive means weak or mixed curves; inactive means no such curve, though single readings can be large; an effect the other way counts as inactive or inconclusive.

Amino acid sequences for entries named in this document (tags omitted). A change or cut given only in a name is not applied to a line headed by its entry.
UniProt P19793: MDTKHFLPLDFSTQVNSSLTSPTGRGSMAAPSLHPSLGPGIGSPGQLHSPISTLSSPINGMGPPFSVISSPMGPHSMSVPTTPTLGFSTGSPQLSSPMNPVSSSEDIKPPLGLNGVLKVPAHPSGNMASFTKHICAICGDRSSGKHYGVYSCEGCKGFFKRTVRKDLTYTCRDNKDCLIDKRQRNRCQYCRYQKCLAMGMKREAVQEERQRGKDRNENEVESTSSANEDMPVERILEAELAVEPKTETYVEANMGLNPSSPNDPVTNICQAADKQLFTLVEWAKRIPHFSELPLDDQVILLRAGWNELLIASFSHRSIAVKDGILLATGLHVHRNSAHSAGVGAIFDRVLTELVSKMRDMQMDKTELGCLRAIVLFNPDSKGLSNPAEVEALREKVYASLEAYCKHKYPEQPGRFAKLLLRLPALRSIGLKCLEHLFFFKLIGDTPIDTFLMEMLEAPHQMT
UniProt P08659, whole entry, looked up: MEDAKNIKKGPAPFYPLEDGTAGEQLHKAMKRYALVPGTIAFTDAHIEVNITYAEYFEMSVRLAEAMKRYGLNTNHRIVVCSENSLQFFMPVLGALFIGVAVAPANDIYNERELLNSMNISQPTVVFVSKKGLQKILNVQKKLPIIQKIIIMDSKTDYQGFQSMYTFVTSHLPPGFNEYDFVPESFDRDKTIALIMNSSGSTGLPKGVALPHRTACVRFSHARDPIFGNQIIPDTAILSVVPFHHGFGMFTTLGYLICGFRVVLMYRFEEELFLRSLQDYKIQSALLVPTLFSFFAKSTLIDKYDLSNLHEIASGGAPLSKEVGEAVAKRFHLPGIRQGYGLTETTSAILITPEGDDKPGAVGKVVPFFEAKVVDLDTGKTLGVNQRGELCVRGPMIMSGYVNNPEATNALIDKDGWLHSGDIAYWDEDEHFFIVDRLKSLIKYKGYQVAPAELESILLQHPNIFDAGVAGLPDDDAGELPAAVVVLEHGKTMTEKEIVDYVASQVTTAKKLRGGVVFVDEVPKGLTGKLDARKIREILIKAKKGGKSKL
UniProt Q14994: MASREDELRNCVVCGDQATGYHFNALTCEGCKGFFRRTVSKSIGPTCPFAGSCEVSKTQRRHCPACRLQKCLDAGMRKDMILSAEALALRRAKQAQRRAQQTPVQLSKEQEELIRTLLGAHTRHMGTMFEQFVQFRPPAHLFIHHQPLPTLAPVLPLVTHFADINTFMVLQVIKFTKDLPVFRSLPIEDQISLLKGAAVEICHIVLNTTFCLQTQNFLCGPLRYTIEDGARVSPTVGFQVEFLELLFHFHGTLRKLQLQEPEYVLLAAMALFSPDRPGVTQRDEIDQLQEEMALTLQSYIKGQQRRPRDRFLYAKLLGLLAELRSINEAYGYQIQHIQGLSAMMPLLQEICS
UniProt P16473, whole entry, looked up: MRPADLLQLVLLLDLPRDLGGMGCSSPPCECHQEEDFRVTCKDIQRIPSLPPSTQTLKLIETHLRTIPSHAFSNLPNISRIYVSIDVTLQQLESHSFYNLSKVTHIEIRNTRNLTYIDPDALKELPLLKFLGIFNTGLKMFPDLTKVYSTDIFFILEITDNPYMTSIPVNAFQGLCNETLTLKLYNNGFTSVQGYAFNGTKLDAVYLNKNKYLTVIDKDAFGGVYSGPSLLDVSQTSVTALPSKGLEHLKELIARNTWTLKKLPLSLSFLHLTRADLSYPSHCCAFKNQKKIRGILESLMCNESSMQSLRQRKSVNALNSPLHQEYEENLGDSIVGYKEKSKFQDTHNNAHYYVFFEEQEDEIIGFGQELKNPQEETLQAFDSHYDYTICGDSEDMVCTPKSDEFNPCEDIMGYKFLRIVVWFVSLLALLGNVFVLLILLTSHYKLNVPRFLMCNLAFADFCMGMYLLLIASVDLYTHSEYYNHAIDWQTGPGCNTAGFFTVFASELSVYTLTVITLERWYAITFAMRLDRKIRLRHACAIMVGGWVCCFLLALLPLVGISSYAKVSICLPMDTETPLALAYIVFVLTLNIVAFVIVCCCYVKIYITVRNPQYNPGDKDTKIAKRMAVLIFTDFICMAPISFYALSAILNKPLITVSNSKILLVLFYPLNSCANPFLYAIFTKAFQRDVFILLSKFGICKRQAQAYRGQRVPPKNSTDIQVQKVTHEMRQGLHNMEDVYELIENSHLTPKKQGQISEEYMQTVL

Columns and labels:
[1] = biological target: Nuclear receptor ROR-gamma (Homo sapiens) (UniProt P51449); experiment: qHTS assay to identify small molecule antagonists of the retinoid-related orphan receptor gamma (ROR-gamma) signaling pathway (AID 1159521;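 further: CHO cells with doxycycline inducible ROR-gamma driving an RORE luciferase reporter; top concentration of the series differs between compounds; on the % scale 0 is the no-effect control and ±100 the full control effect; nearly all actives have a fitted effect of over 50% in size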); conditions: Tet-on RORgamma CHO cells, RORE-luciferase, 16 h; at 92.4 µM (top of the series)
[2] = qHTS assay to identify small molecule agonists of the AP-1 signaling pathway - cell viability counter screen (AID 1159525; calls by dose curve; further: nearly all actives have a fitted effect of over 55% in size); conditions: ME-180 AP-1-bla cells viability, ATP luminescence, 5 h; at 76.8 µM (top of the series) unless noted
Summary of the method: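 ME-180 AP-1-bla, 2500 cells/well, Opti-MEM + 0.5% dialyzed FBS; overnight 37 °C; cpd 15-pt titration, 5 h 37 °C; CellTiter-Glo 30 min RT; luminescence read; normalised to TOAB and DMSO controls.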

[3] = qHTS assay to identify small molecule agonists of the AP-1 signaling pathway (AID 1159526; calls by dose curve; further: on the % scale 0 is the no-effect control and ±100 the full control effect); conditions: ME-180 (cervical carcinoma) AP-1-bla reporter, beta-lactamase FRET ratio, 5 h; at 76.8 µM (top of the series) unless noted
[4] = biological target: Retinoic acid receptor RXR-alpha (Homo sapiens) (UniProt P19793); experiment: qHTS assay to identify small molecule agonists of the RXR signaling pathway (AID 1159527; calls by dose curve; further: on the % scale 0 is the no-effect control and ±100 the full control effect; nearly all actives have a fitted effect of over 35% in size); conditions: HEK293T RXRa-UAS-bla, beta-lactamase ratio, 16 h
[5] = qHTS assay to identify small molecule antagonists of the retinoic acid receptor (RAR) signaling pathway (AID 1159552; further: on the % scale 0 is the no-effect control and ±100 the full control effect; nearly all actives have a fitted effect of over 50% in size); conditions: C3RL4 RARE luciferase reporter, retinol-stimulated, 6 h
Summary of the method: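 Readout: luciferase luminescence, 30 min post-reagent at RT. Setup: C3RL4 RARE reporter cells, compounds plus retinol 1 uM final, 6 hr incubation at 37 C and 5% CO2.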

[6] = qHTS assay to identify small molecule antagonists of the estrogen related receptor (ERR) signaling pathway from Tox21 library - cell viability counter screen (AID 1224834); conditions: ERR reporter cells viability, CellTiter-Fluor, 17.5 h; series mostly up to 92.4 µM; further: nearly all actives have a fitted effect of over 30% in size; further: potency means the concentration at half of the fitted maximal effect; on viability change, negative = cytotoxic: on the % scale 0 is the no-effect control and ±100 the full control effect
Summary of the method: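 Fluorescence from CellTiter-Fluor gives the viability read-out, taken 30 min after reagent addition. Before that, ERR cells seeded 6 h earlier were incubated with compounds for 17.5 h at 37 C.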

[7] = biological target: Luciferin 4-monooxygenase (Photinus pyralis) (UniProt P08659); experiment: qHTS assay to identify small molecule inhibitors of firefly luciferase (AID 1224835); further: on the % scale 0 is the no-effect control and ±100 the full control effect; nearly all actives have a fitted effect of over 25% in size; conditions: purified P. pyralis luciferase, luminescence inhibition; series mostly up to 115 µM
Summary of the method: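 Quantitative HTS format; KM concentrations of both substrates. Purified P. pyralis FLuc activity quantified from luminescence images.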

[8] = qHTS assay to identify small molecule agonists of the constitutive androstane receptor (CAR) signaling pathway - cell viability counter screen (AID 1224836); conditions: HepG2-CYP2B6-hCAR viability, CellTiter-Fluor, 23 h, PK11195 added to every well; series mostly up to 92.4 µM; further: on the % scale 0 is the no-effect control and ±100 the full control effect; nearly all actives have a fitted effect of over 45% in size
Summary of the method: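 Compound titrations (15 concentrations) went onto HepG2-CYP2B6-hCAR cells 4 h after seeding, alongside PK11195 at a final 0.75 uM; a 23 h, 37 C/5% CO2 incubation preceded CellTiter-Fluor viability measurement.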

[9] = qHTS assay to identify small molecule antagonists of the constitutive androstane receptor (CAR) signaling pathway - cell viability counter screen (AID 1224837); conditions: HepG2-CYP2B6-hCAR viability, CellTiter-Fluor, 23 h, co-treated with 50 nM CITCO; series mostly up to 92.4 µM; further: on the % scale 0 is the no-effect control and ±100 the full control effect; nearly all actives have a fitted effect of over 45% in size
Summary of the method: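 HepG2-CYP2B6-hCAR cells, 2500/well, 4 hr pre-incubation; compound titration, 15 conc.; CITCO 50 nM final; 23 hr, 37 C/5% CO2; CellTiter-Fluor, fluorescence intensity.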

[10] = biological target: Nuclear receptor subfamily 1 group I member 3 (Homo sapiens) (UniProt Q14994); experiment: qHTS assay to identify small molecule antagonists of the constitutive androstane receptor (CAR) signaling pathway (AID 1224838); conditions: HepG2-CYP2B6-hCAR luciferase, CITCO-stimulated, 24 h; series mostly up to 92.4 µM;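 further: HepG2 cells stably expressing hCAR with CYP2B6 luciferase reporter stimulated by CITCO; on the % scale 0 is the no-effect control and ±100 the full control effect; nearly all actives have a fitted effect of over 40% in size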
[11] = qHTS assay to identify small molecule antagonists of the estrogen related receptor signaling pathway with the pleiotropic PPARgamma coactivator (PGC) from Tox21 10K library - cell viability counter screen (AID 1224840; active means well fitted cell-killing curve with a large enough effect in the repeat runs, not every such curve was filed as active; further: on the % scale 0 is the no-effect control and ±100 the full control effect; nearly all actives have a fitted effect of over 40% in size); conditions: PGC/ERR reporter cells viability, CellTiter-Fluor, 17.5 h; at 92.4 µM (top of the series) unless noted
Summary of the method: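 PGC/ERR cells, 2,000/well; 6 h pre-incubation 37 C/5% CO2; cpd in DMSO via pin tool; 17.5 h 37 C; CellTiter-Fluor, 30 min; fluorescence.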

[12] = biological target: Thyrotropin receptor (Homo sapiens) (UniProt P16473); experiment: qHTS assay to identify small molecule agonists of the thyroid stimulating hormone receptor (TSHR) signaling pathway (AID 1224843; calls by dose curve; further: on the % scale 0 is the no-effect control and ±100 the full control effect; nearly all actives have a fitted effect of over 45% in size); conditions: TSHR-HEK293 cells, cAMP HTRF, agonist mode, 30 min; series mostly up to 92.4 µM
[13] = biological target: Nuclear receptor subfamily 1 group I member 3 (Homo sapiens) (UniProt Q14994); experiment: qHTS assay to identify small molecule agonists of the constitutive androstane receptor (CAR) signaling pathway (AID 1224839); conditions: HepG2 hCAR CYP2B6-luciferase, agonist mode, 24 h; at 92.4 µM (top of the series) unless noted;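 further: HepG2 cells stably carrying human CAR and a CYP2B6 luciferase reporter; on the % scale 0 is the no-effect control and ±100 the full control effect; nearly all actives have a fitted effect of over 15% in size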
[14] = qHTS assay to identify small molecule antagonists of the estrogen related receptor (ERR) signaling pathway - cell viability counter screen (AID 1224818); conditions: ERR reporter cell line viability counter screen; series mostly up to 46.1 µM; further: potency means the concentration at half of the fitted maximal effect;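 further: viability measured after 17.5 h of compound exposure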
Summary of the method: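 Multiplexed counter screen to separate cytotoxic compounds from true ERR modulators. ERR cells received DMSO-dissolved compounds after a 6 h pre-incubation, were exposed 17.5 h at 37 C, then assayed with CellTiter-Fluor fluorescence.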

[15] = qHTS assay to identify small molecule antagonists of the estrogen related receptor (ERR) signaling pathway (AID 1224819; further: nearly all actives have a fitted effect of over 50% in size; further: potency means the concentration at half of the fitted maximal effect); conditions: ERR reporter cell line, luciferase inhibition; series mostly up to 46.1 µM
Summary of the method: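 Seed ERR cells 2,000/well; rest 6 h at 37 C/5% CO2; pin compounds in DMSO; incubate 18 h at 37 C; add One-Glo; wait 30 min at room temperature; measure luminescence.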

[16] = qHTS assay to identify small molecule agonists of the estrogen related receptor (ERR) signaling pathway (AID 1224820); conditions: ERR reporter cell line, luciferase agonist mode; at 46.1 µM (top of the series) unless noted; further: on the % scale 0 is the no-effect control and ±100 the full control effect
Summary of the method: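 Cells: ERR line from NTP, 2,000/well. Pre-incubation 6 h, 37 C/5% CO2. Compound (DMSO) pin transfer, 18 h 37 C. One-Glo, 30 min RT, luminescence.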

[17] = qHTS assay to identify small molecule antagonists of the estrogen related receptor signaling pathway with the pleiotropic PPARgamma coactivator (PGC) cell viability counter screen (AID 1224822; further: potency means the concentration at half of the fitted maximal effect); conditions: ERR/PGC reporter cell line viability counter screen; series mostly up to 46.1 µM
Summary of the method: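 Cells: PGC/ERR, 2,000/well, 1536-well format. Pre-incubation 6 h, 37 C/5% CO2. Compound exposure 17.5 h, 37 C. Detection: CellTiter-Fluor, 30 min, fluorescence.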

[18] = qHTS assay to identify small molecule agonists of the estrogen related receptor signaling pathway with the pleiotropic PPARgamma coactivator (PGC) (AID 1224823); conditions: ERR/PGC reporter cell line, luciferase agonist mode; at 92.2 µM (top of the series); further: on the % scale 0 is the no-effect control and ±100 the full control effect
Summary of the method: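 Steps: plate PGC/ERR cells at 2,000 cells/well; incubate 6 h, 37 C/5% CO2; pin-transfer compounds (DMSO); incubate 18 h, 37 C; add One-Glo; 30 min RT; read luminescence.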

[19] = qHTS assay to identify small molecule antagonists of the estrogen related receptor signaling pathway with the pleiotropic PPARgamma coactivator (PGC) from Tox21 10K library (AID 1224841; call rule not given here; further: actives are mostly falling curves and most rising ones were filed inactive; nearly all actives have a fitted effect of over 50% in size; further: potency means the concentration at half of the fitted maximal effect); conditions: PGC/ERR reporter cell line, ONE-Glo luciferase, 18 h; series mostly up to 92.4 µM
[20] = qHTS assay to identify small molecule agonists of the estrogen related receptor signaling pathway with the pleiotropic PPARgamma coactivator (PGC) from Tox21 10K library (AID 1224842); conditions: PGC/ERR reporter cell line, luciferase ONE-Glo, 18 h; at 92.4 µM (top of the series) unless noted; further: on the % scale 0 is the no-effect control and ±100 the full control effect; nearly all actives have a fitted effect of over 15% in size
Summary of the method: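 PGC/ERR reporter cells (NTP line) were seeded 2,000 per well, rested 6 h at 37 C/5% CO2, then pin-dosed with compounds in DMSO for 18 h at 37 C; luciferase read by One-Glo luminescence after 30 min at room temperature.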

CCCCOP(OCCCC)OCCCC
inactive: activity change, negative = inhibition [1] 1.59% | viability change, negative = cytotoxic [2] 0.802% | activation [3] 1.79% | activation ([4]; at 76.8 µM (top of the series)) 4.66% | activity, negative = inhibition ([5]; at 92.4 µM (top of the series)) -5.93% | Potency [6] | Potency [7] | Potency [8] | Potency [9] | Potency [10] | viability change, negative = cytotoxic [11] 1.13% | Potency [12]

COC(=O)Cl
inactive: viability change, negative = cytotoxic [2] -0.0173% | activation [3] 0.633% | activation ([4]; at 76.8 µM (top of the series)) 5.12% | activity, negative = inhibition ([5]; at 92.4 µM (top of the series)) 21.2% | Potency [6] | Potency [7] | Potency [8] | Potency [9] | Potency [10] | activation [13] -0.782% | viability change, negative = cytotoxic [11] 2.64%

Cc1cc([N+](=O)[O-])cc([N+](=O)[O-])c1O
active: Potency [14] 22.5 µM | Potency [15] 16 µM | Potency [17] 15.4 µM | Potency [19] 15.4 µM and 25.3 µM
inactive: viability change, negative = cytotoxic [2] 7.59% | activation [16] -62.7% [at 92.2 µM] | activation [18] -16.8% | Potency [7] | Potency [10] | Potency [12]

CN(C(=O)Cc1ccc(Cl)c(Cl)c1)[C@@H]1CC[C@]2(CCCO2)C[C@H]1N1CCCC1
inactive: Potency [14] | Potency [17]

O=[p+]1oc2ccccc2c2ccccc21 (centres undefined)
inactive: activity change, negative = inhibition [1] 5.94% | viability change, negative = cytotoxic [2] 1.07% | activation [3] -3.61% | activation ([4]; at 76.8 µM (top of the series)) 4.38% | activity, negative = inhibition ([5]; at 92.4 µM (top of the series)) 14% | Potency [6] | Potency [7] | Potency [8] | Potency [9] | Potency [10] | activation [13] 3.29% | viability change, negative = cytotoxic [11] -1.42% | Potency [19] | activation [20] -1.09% | Potency [12]

COP(=S)(Cl)OC
inactive: activity change, negative = inhibition [1] -12.5% | viability change, negative = cytotoxic [2] -0.0699% | activity, negative = inhibition ([5]; at 92.4 µM (top of the series)) -1.36% | Potency [6] | Potency [8] | Potency [9] | Potency [10] | activation [13] -7.01% | viability change, negative = cytotoxic [11] 0.391% | Potency [12]

CN(C(=O)Cc1ccc(Cl)c(Cl)c1)[C@H]1CCCC[C@@H]1N1CCCC1
inactive: Potency [14] | Potency [15] | activation [16] 14.7% and 14.2% | Potency [17]

CCC(C)(OOC(C)(C)C)OOC(C)(C)C
inactive: viability change, negative = cytotoxic [2] 2.27% [at 15.8 µM] | activation [3] 8.35% [at 15.8 µM] | activation ([4]; at 15.8 µM (top of the series)) 5.65% | activity, negative = inhibition ([5]; at 19 µM (top of the series)) 6.6% | viability change, negative = cytotoxic [6] -3.82% [at 19 µM] | activity change, negative = inhibition [7] 0.643% [at 23.6 µM] | viability change, negative = cytotoxic [8] 0.918% [at 19 µM] | activity change, negative = cytotoxicity [9] -3.11% [at 19 µM] | activity, negative = inhibition [10] 4.19% [at 19 µM] | activation [13] -0.0445% [at 19 µM] | viability change, negative = cytotoxic [11] -10.8% [at 19 µM] | activity, negative = inhibition [19] 36.9% [at 19 µM] | activation [20] 1.92% [at 19 µM] | activation [12] -1.49% [at 19 µM]

CCCCCCCCCCCCCC[P+](CCCCCC)(CCCCCC)CCCCCC
inactive: Potency [7] | Potency [12]

Cc1cc([N+](=O)[O-])c(O)c([N+](=O)[O-])c1
inactive: viability change, negative = cytotoxic [2] -8.77% | activation [3] 3.01% | Potency [7] | Potency [10] | activation [13] 0.582% | Potency [19] | activation [20] -7.69% | Potency [12]
active: Potency [6] 55 µM
